Results reported in article PMC7549103 (ACS Medicinal Chemistry Letters, 2020).

Protein sequences, listed by entry. Tags and fused reporters are not part of them.
UniProt Q07817, whole entry: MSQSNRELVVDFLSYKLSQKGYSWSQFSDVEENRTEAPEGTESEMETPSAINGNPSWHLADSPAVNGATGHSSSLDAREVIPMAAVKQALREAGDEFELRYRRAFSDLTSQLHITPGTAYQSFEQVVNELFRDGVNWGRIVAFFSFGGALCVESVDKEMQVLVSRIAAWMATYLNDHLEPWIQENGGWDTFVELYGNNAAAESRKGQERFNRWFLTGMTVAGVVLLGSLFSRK

Target: GST-BCL-XL (Homo sapiens, UniProt Q07817)
Assay type: binding

Cc1c(-c2ccc(N3CCc4cccc(C(=O)Nc5nc6ccccc6s5)c4C3)nc2C(=O)O)cnn1Cc1ccccc1 [Compound 10]
improvement in target affinity relative to parent 6: approximately 7 fold
